Laboratory results: article PMC7503225, “Repositioning Dequalinium as Potent Muscarinic Allosteric Ligand by Combining Virtual Screening Campaigns and Experimental Binding Assays” (International Journal of Molecular Sciences, 2020)

Chains of the proteins cited; added tags and fusions are not shown.
UniProt P08172, whole entry: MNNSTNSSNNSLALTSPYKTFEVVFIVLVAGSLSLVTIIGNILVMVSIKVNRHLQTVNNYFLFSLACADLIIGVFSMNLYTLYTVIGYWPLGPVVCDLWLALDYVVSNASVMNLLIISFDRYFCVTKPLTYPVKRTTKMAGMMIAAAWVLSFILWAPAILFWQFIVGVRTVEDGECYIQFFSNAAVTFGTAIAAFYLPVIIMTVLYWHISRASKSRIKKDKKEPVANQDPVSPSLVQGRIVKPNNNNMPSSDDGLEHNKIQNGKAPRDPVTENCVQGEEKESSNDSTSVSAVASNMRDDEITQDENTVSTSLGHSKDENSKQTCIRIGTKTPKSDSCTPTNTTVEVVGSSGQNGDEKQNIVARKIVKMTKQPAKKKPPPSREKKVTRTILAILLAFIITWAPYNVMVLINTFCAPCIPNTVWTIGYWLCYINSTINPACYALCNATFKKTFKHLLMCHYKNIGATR

How the values were obtained:
hM2 muscarinic receptor = molecular target: T1, hM2 muscarinic receptor (Homo sapiens, UniProt P08172); assay: Equilibrium inhibition binding with [3H]-NMS, CHO cell membranes
T1 construct: expressed in transfected cells; host or cells: CHO cells, stably transfected; membrane fractions

[1] = molecular target: T2, [3H]-NMS-occupied muscarinic hM2 subtype (Homo sapiens, UniProt P08172); assay: One point kinetic (off-rate) assay of [3H]-NMS dissociation; assay type: binding; settings: for Kd: read-out: Log Kocc hM2 (converted)
T2 construct: expressed in transfected cells; host or cells: CHO cells, stably transfected; membrane fractions

[2] = molecular target: five human muscarinic receptors subtypes (hM1–hM5); assay: Equilibrium binding, summary statements over the five subtypes

Row | SMILES | Ki (hM2 muscarinic receptor) [µM] | selectivity ratio hM2/hM1 ([1]; from log Kocc values) | selectivity ratio hM2/hM5 ([1]; from log Kocc values) | Kd [1] [µM] | pKi values (muscarinic subtypes overall) [2]
1 | [H]/N=C(\N/C(=N/[H])NCCCCCCNC(=N)NC(=N)Nc1ccc(Cl)cc1)Nc1ccc(Cl)cc1 [chlorhexidine] | 3.8 | 14 | 32.4 | 5.75 | –
2 | CC(=O)N1CCN(c2ccc(OCC3COC(Cn4ccnc4)(c4ccc(Cl)cc4Cl)O3)cc2)CC1 (stereo not drawn) [ketoconazole] | – | – | – | 61.7 | –
3 | C[n+]1ccc(-c2cc[n+](C)cc2)cc1 [paraquat] | – | – | – | – | below 5
